Substitutions are numbered along the chain they refer to. Where two headings read alike, the source gives them in different places.
Columns and labels:
Experiment in all cases: cell-based or functional assay
[1] = biological target: T1, human wildtype CSF-1R (wt CSF-1R) (human, UniProt P07333 20-972)
[2] = biological target: T1, human wildtype CSF-1R (wt CSF-1R); remark: listed apart in the source
[3] = biological target: T1, human wildtype CSF-1R (wt CSF-1R); remark: listed apart in the source
[4] = biological target: T1, human wildtype CSF-1R (wt CSF-1R); remark: listed apart in the source

## Anti CSF-1R SC 2-4A5 (Santa Cruz Biotechnology, US) (antibody)
[1]
  IC50 CSF-1R Phosphorylation: 1010 ng/mL

B1: Mab 2F11 (antibody, V domains shown)
VH: QVQLKESGPGLVAPSQSLSITCTVSGFSLTTYDISWIRQSPGKGLEWLGVIWTDGGTNYNSPFMSRLSIRKDNSKSQVFLKMNRLQTDDTAIYYCVRDQRLYFDVWGAGTTVTVSS
VL: NIVMTQSPKSMSMSVGERVTLNCKASEDVNTYVSWYQQQPEQSPKLLIYGASNRYTGVPDRFTGGGSTTDFTLTISSVQAEDLADYFCGQSFSYPTFGTGTKLEIK
[2]
  IC50 of inhibition of survival of human monocytes cultured with 150 ng/ml huCSF-1 (CellTiterGlo): 0.08 µg/mL
[3]
  IC50 CSF-1R Phosphorylation: 219 ng/mL

B2: Mab 2E10 (antibody, V domains shown)
VH: QVQLKESGPGLVAPSKSLSITCTVSGSSLDSFDISWIRQSPGKGLEWLGVIWTGGGTNYNSGFMSRLRITKDNSKSQVLLKMNSLQSDDTAIYYCVRDPRLYFDVWGAGTTVTVSS
VL: B1 VL with N22S, N30V, Q39K, E41D, G65S, T68A, F87Y, S91T
[3]
  IC50 CSF-1R Phosphorylation: 752 ng/mL

B3: hMab 2F11-e7 (antibody, IgG1, V domains shown)
VH: QVQLVQSGAEVKKPGASVKVSCKASGYTFTSYDISWVRQAPGQGLEWMGVIWTDGGTNYAQKLQGRVTMTTDTSTSTAYMELRSLRSDDTAVYYCARDQRLYFDVWGQGTTVTVSS
VL: DIQMTQSPSSLSASVGDRVTITCRASEDVNTYVSWYQQKPGKAPKLLIYAASNRYTGVPSRFSGSGSGTDFTLTISSLQPEDFATYYCQQSFSYPTFGQGTKLEIK
[4]
  IC50 of inhibition of survival of human monocytes cultured with 150 ng/ml huCSF-1 (CellTiterGlo): 0.04 µg/mL

B4: hMab 2F11-f12 (antibody, V domains shown)
VH: QVQLVQSGAEVKKPGSSVKVSCKASGFSLTTYDISWVRQAPGQGLEWMGVIWTDGGTNYNSPFMSRVTITKDESTSTAYMELSSLRSEDTAVYYCVRDQRLYFDVWGQGTTVTVSS
VL: B3 VL with A50G, N53S, R54L, Y55Q, T56S, Q89G
[4]
  IC50 of inhibition of survival of human monocytes cultured with 150 ng/ml huCSF-1 (CellTiterGlo): 0.09 µg/mL
